According to patent publication US20230248642A1, “INJECTABLE HIGH-DRUG-LOADED NANOCOMPOSITE GELS AND PROCESS FOR MAKING THE SAME” (NUECOLOGY BIOMEDICAL INC., priority 2020, published 2023):

Test system: SKBR-3-derived tumor
Test: In-vivo study of trastuzumab gel on SKBR3-derived breast tumor
Conditions: SC injection, BALB/c Nude mice with SKBR3 tumor
From the text: The injectable nanocomposite gel carrying biosimilar drug, i.e., trastuzumab, with different dosing concentration designed based on clinical data per dosing, for a subsequent animal study. The breast tumor was cultivated by injection 1×10^7 SKBR3 cells to the right flank region of the mice, and the controls are given below: • Objects: Seven-week-old BALB/c Nude mice (Female) • Quantity: 5 groups, 4 mice for each group, totally 20. • Drugs: (1) PBS; (2) free-trastuzumab; (3) 1× trastuzumab gel; (4) 2× trastuzumab gel; (5) • 3× trastuzumab gel (for 3-week dose at one injection) • Dose: 25 mg/kg and 50 mg/kg, and 75 mg/kg, one SC injection per week • Injection frequency: Three doses on 2 weeks (Subcutaneous injection) • Injection Volume: 100 ul/20 g • Observation: Weight the mice and measure the tumor size twice a week. • Test period: 2-3 weeks, depending on size change of the breast tumor • Injection site: subcutaneous site on the left flank region of the mice • After continue monitoring on the size change of the tumor for on a weekly base, we found the growth of the tumor for the control group (PBS) is significant in the first week, from ˜100 mm^3 to nearly 1000 mm^3, and for free trastuzumab injection, from ˜100 mm^3 to 813 mm^3, and for 1× trastuzumab gel, from ˜100 mm^3 to 543 mm^3, and for 2× trastuzumab gel, from ˜100 mm^3 to nearly 410 mm^3. […]

trastuzumab [free trastuzumab]
tumor size (first week, starting from ~100 mm^3): 813 mm^3 | tumor size (second week): ~1500 mm^3
